Data from patent publication US12686673B2 (Blueprint Medicines Corporation, priority 2020, dated 2026).
Structures can show the parent of a compound that is named as a salt.

Key:
Type in all cases: cell-based
[1] = biological target: EGFR (A767_dupASV) expressing Ba/F3 stable cell line (Homo sapiens, UniProt P00533, DUP767-769, cells depend on it); assay: Cellular proliferation (Alamar Blue) assay, EGFR A767_dupASV Ba/F3; conditions: 72 hr, read-out: A767 IC50
Description: (§1) • 1. EGFR(D770_N771insSVD) expressing Ba/F3 stable cell line • 2. EGFR (A767_dupASV) expressing Ba/F3 stable cell line • 3. A431 cells • 4. EGFR (H773insNPH) expressing Ba/F3 stable cell line • 5. HER2 (A775_G776insYVMA) expressing Ba/F3 stable cell line Assay Procedure: • 1. Seed cells at 5000 for A431 and 15,000 cells for Ba/F3 in 100 μL/well in complete media (for A431: DMEM with […] and for Ba/F3 cells: RPMI with 10% FBS) in 96-well tissue culture plate. Leave outer wells without cells for background measurements. Incubate at 37 degree Celsius in […] humidified incubator for 16-18 hours. • 2. Add 0.025 ml of 5× concentration compound dilution or DMSO control. Final compound concentration range is 10-0.0005 μM prepared in 3-fold serial dilutions. Incubate for 72 hr at 37 degree Celsius in […] humidified incubator. • 3. Add 0.0125 ml Alamar Blue™ reagent to each well with multi-channel pipette and tap gently on each side of the plate to mix. Incubate for 3 hours at 37 degree Celsius in 5% CO2 humidified incubator. • 4. […] Data analysis was performed using XLfit 5.5.0.5.

[2] = biological target: EGFR(D770_N771insSVD) expressing Ba/F3 stable cell line (Homo sapiens, UniProt P00533, DUP768-770, cells depend on it); assay: Cellular proliferation (Alamar Blue) assay, EGFR D770_N771insSVD Ba/F3; conditions: 72 hr, read-out: D770 IC50
Description: as §1

[3] = biological target: EGFR (H773insNPH) expressing Ba/F3 stable cell line (Homo sapiens, UniProt P00533, DUP771-773, cells depend on it); assay: Cellular proliferation (Alamar Blue) assay, EGFR H773insNPH Ba/F3; conditions: 72 hr, read-out: NPH IC50
Description: as §1

[4] = biological target: HER2 (A775_G776insYVMA) expressing Ba/F3 stable cell line (Homo sapiens, UniProt P04626, DUP772-775, cells depend on it); assay: Cellular proliferation (Alamar Blue) assay, HER2 A775_G776insYVMA Ba/F3; conditions: 72 hr, read-out: YVMA IC50
Description: as §1

Row | Compound | GI50 [1] [nM] | GI50 [2] [nM] | GI50 [4] [nM] | also measured
1 | C=CC(=O)Nc1ccc(F)c(Nc2nc(Nc3cnn(C)c3)ncc2-c2cncc(C(F)(F)F)c2)c1 [Compound 56, N-(4-fluoro-3-((2-((1-methyl-1H-pyrazol-4-yl)amino)-5-(5-(trifluoromethyl)pyridin-3-yl)pyrimidin-4-yl)amino)phenyl)acrylamide] | 33 | 33 |  | 
2 | C=CC(=O)Nc1ccc(F)c(Nc2nc(Nc3cnn(C)c3)ncc2-c2ccc(C)nc2)c1 [Compound 66, N-(4-fluoro-3-((2-((1-methyl-1H-pyrazol-4-yl)amino)-5-(6-methylpyridin-3-yl)pyrimidin-4-yl)amino)phenyl)acrylamide] |  | 33 |  | 
3 | C=CC(=O)Nc1ccc(F)c(Nc2nc(Nc3cnn(C)c3)ncc2-c2ccc(OC)nc2)c1 [Compound 86, N-(4-fluoro-3-((5-(6-methoxypyridin-3-yl)-2-((1-methyl-1H-pyrazol-4-yl)amino)pyrimidin-4-yl)amino)phenyl)acrylamide] |  |  |  | GI50 [3]: 33 nM
4 | C=CC(=O)Nc1cccc(Nc2nc(Nc3cnn(C)c3)ncc2-c2ccc(OC)nc2)c1 [Compound 118, N-(3-((5-(6-methoxypyridin-3-yl)-2-((1-methyl-1H-pyrazol-4-yl)amino)pyrimidin-4-yl)amino)phenyl)acrylamide trifluoroacetate] |  | 33 |  | 
5 | C=CC(=O)Nc1ccc(F)c(Nc2nc(Nc3cnn(C)c3)ncc2-c2cnc(C(F)(F)F)nc2)c1 [Compound 123, N-(4-fluoro-3-((2-((1-methyl-1H-pyrazol-4-yl)amino)-2′-(trifluoromethyl)-[5,5′-bipyrimidin]-4-yl)amino)phenyl)acrylamide] |  |  | 35 | 
6 | C=CC(=O)Nc1cccc(Nc2nc(Nc3cnn(C)c3)ncc2-c2ccc(C(F)(F)F)cc2)c1F [Compound 148, N-(2-fluoro-3-((2-((1-methyl-1H-pyrazol-4-yl)amino)-5-(4-(trifluoromethyl)phenyl)pyrimidin-4-yl)amino)phenyl)acrylamide trifluoroacetate] |  | 33 |  | 
7 | C=CC(=O)Nc1cccc(Nc2nc(Nc3cnn(C)c3)ncc2-c2ccc(Br)cc2)c1 [Compound 274, N-(3-((5-(4-bromophenyl)-2-((1-methyl-1H-pyrazol-4-yl)amino)pyrimidin-4-yl)amino)phenyl)acrylamide] | 33 |  |  | 

Second part, led by results:

Row | GI50 [1] [nM] | GI50 [2] [nM] | GI50 [4] [nM] | Compound | also measured
8 |  | 12 | 35 | C=CC(=O)Nc1ccc(F)c(Nc2nc(Nc3cnn(C)c3)ncc2-c2ccc(Cl)nc2)c1 [Compound 101, N-(3-((5-(6-chloropyridin-3-yl)-2-((1-methyl-1H-pyrazol-4-yl)amino)pyrimidin-4-yl)amino)-4-fluorophenyl)acrylamide] | 
9 |  |  | 35 | C=CC(=O)Nc1ccc(F)c(Nc2nc(Nc3cnn(C)c3)ncc2-c2cncc(Cl)c2)c1 [Compound 102, N-(3-((5-(5-chloropyridin-3-yl)-2-((1-methyl-1H-pyrazol-4-yl)amino)pyrimidin-4-yl)amino)-4-fluorophenyl)acrylamide] | 
10 | 33 |  |  | C=CC(=O)Nc1ccc(F)c(Nc2nc(Nc3cnn(C)c3)ncc2-c2cncc(C(F)F)c2)c1 [Compound 110, N-(3-((5-(5-(difluoromethyl)pyridin-3-yl)-2-((1-methyl-1H-pyrazol-4-yl)amino)pyrimidin-4-yl)amino)-4-fluorophenyl)acrylamide] | 
